Consider one molecule from ChEMBL document CHEMBL4428099, “Identification of indole scaffold-based dual inhibitors of NOD1 and NOD2” (Bioorg Med Chem, 2016).

For this experiment, the species on record is Homo sapiens. In words: Selectivity ratio, ratio of IC50 for human NOD2 over-expressed in HEK-Blue cells to IC50 for human NOD1 over-expressed in HEK-Blue cells. The format is cell-based.

For the molecule `Cc1ccc(S(=O)(=O)n2c(N)nc3ccccc32)cc1`, the Ratio IC50 came to 75.
